{"source": "patent US6077519A", "about": "“Methods for isolation and use of T cell epitopes eluted from viable cells in vaccines for treating cancer patients” (University of Pittsburgh, priority 1997, dated 2000)", "key": {"Mel 624 [1]": {"system": "Mel 624", "assay": "induction of anti-melanoma CTL from normal donor PBMC by peptide-pulsed autologous DC, lysis of Mel 624", "assay_type": "cell-based, human"}, "Mel 624 [2]": {"system": "Mel 624", "assay": "induction of anti-melanoma CTL from melanoma patient PBMC by peptide-pulsed autologous DC, lysis of Mel 624", "assay_type": "cell-based, human", "text": "Heparinized peripheral blood was obtained by venipuncture from 15 HLA-A2^+ normal donors and 10 HLA-A2^+ donors with AJCC Stage III or IV melanoma treated at the University of Pittsburgh Cancer Institute/University of Pittsburgh School of Medicine. Peripheral blood mononuclear cells (\"PBMC\") were obtained after density centrifugation on Ficoll-Hypaque gradients per the manufacturer's protocol (LSM, Organon-Teknika, Durham, N.C.). After 4-5 washes in Hank's Buffered Saline (HBSS from GIBCO-BRL, Gaithersburg, Md.), 10^8 cells/10 ml of serum-free AIM-V medium (GIBCO-BRL) were placed in T75 flasks (COSTAR, Cambridge, Mass.) and incubated for 1-1.5 hours at 37° C., 5% CO2 to allow for cell attachment. Non-adherent cells were frozen in liquid nitrogen in 90% fetal bovine serum/10% DMSO and were retained as T cell enriched responder populations. Plastic adherent cells were cultured for 5-7 days in AIM-V medium supplemented with 1000 U rIL-4/ml+1000 U rGM-CSF/ml at 37° C., 5% CO2 and served as the source of autologous dendritic cells. No medium was added or removed during this culture period. Non-adherent cells were harvested and DCs were purified further by discontinuous density centrifugation on a layer of Nycoprep 1.064 (GIBCO-BRL):LSM (9:1), 800 g×15 minutes. Gradient interface cells were harvested, washed with HBSS, and used in phenotypic and functional assays, as outlined below. Cells generated in this way were determined to be greater than 90% DC based on morphology and the expression of a CD1a+, CD1b+, CD1c+, CD3-, CD14-, CD16-, CD20-, CD40+, CD80+, CD83+, CD86+, MHC class II+phenotype assessed by flow cytometry. […]\nPlastic non-adherent DC (1-2×10^6) were harvested from IL-4+GM-CSF cultures on days 7, 14, 21, and 28, and washed twice with HBSS. […] Each week a portion of the cultured T cells were harvested and evaluated for their ability to mediate cytolysis of the allogeneic HLA-A2+Mel 624 target cell in 4 h ^51 Chromium (^51 Cr)-release assays. […]"}, "[3]": {"conditions": "lysis of Mel 624 >20% at E:T 10:1, >80% inhibited by BB7.2"}}}
{"sequence": "AAGIGILTV [MART-1 27-35]", "values": [{"measurement": "Normal PBL Response (responders/donors)", "setting": "Mel 624 [1]; [3]", "result": "11/12"}, {"measurement": "Peak week of CTL reactivity, Normal PBL", "setting": "Mel 624 [1]; normal donors", "result": "3-4 wk"}, {"measurement": "Patient PBL Response (responders/patients)", "setting": "Mel 624 [2]; [3]", "result": "9/10"}, {"measurement": "Peak week of CTL reactivity, Patient PBL", "setting": "Mel 624 [2]; melanoma patients", "result": "3-4 wk"}, {"measurement": "immunodominance by kinetics and magnitude of response", "setting": "Mel 624 [2]; melanoma patients", "result": "immunodominant epitopes"}]}
